Data from US7838527B2, “Methods of treating cancer and related methods” (Novartis Vaccines and Diagnostics, Inc., priority 2002, dated 2010).

Test system: PC3 (prostate cancer)
Experiment: cells
Conditions: Homo sapiens, 72 h

CN1CCN(c2ccc3nc(-c4c(N)c5c(F)cccc5[nH]c4=O)[nH]c3c2)CC1 [Compound 1]
EC50: 1 to 10 µM
